US6602510B1, “HLA class I A2 tumor associated antigen peptides and vaccine compositions” (priority 2000, dated 2003)
“And” between values parts separate entries of the source, which are not always exact repeats. Equal entries are not always repeated.

Experiments:
[1] = tested on: HLA-DR molecules (16 most prevalent); settings: cited from earlier work
[2] = tested on: PBMC from normal donors; type: cell-based, human
[3] = tested on: patients with recurrent or residual cervical carcinoma; settings: two weeks after vaccination; PBMC stimulated in vitro with 5 μg/ml peptide; proliferation index exceeded 5; listed as PADRE®; cited from earlier work

Row | Substance | number of HLA-DR molecules bound [1] | donors with primary T cell responses [2] | patients with PADRE-specific T cell proliferative response [3] | potency for activation of T cell responses relative to TT 830-843 antigen [2]
1 | QYIKANSKFIGITE [Epitope 553.01, reference compound] | seven of 16 | 2 out of 3 | – | –
2 | aKXVAAWTLKAAa-NH2 | – | all three donors | four of 12 and 4 out of 12 | about 100 fold
